# From PubChem BioAssay AID1053197 (The Scripps Research Institute Molecular Screening Center, 2014)
# Amino acid sequences for entries named in this document (tags omitted).
# UniProt Q9HAT2, whole entry: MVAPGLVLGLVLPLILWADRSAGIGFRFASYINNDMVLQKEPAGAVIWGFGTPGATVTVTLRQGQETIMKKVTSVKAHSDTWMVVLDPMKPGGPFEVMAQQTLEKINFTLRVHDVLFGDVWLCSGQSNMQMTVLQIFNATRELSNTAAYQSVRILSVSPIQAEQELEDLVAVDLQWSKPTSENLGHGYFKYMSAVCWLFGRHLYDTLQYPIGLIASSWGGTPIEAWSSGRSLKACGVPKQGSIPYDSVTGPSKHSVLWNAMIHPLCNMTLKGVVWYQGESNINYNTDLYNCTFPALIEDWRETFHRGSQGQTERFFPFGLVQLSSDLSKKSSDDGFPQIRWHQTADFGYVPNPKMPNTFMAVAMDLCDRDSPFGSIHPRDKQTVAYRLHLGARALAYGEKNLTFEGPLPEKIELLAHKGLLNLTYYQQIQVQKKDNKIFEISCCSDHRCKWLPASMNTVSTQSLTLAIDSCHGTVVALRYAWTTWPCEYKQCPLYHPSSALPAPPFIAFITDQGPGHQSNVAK
# The entries are a selection whose mix differs from that of the whole data set. Some tests of the compounds listed are not included; inactive here does not mean inactive elsewhere. The source made the active and inactive calls.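 The calls were made as follows: active = inhibition above a cutoff: mean of compounds within the control limits plus 3 SD of those (cut at about 17% in these data); inactive = the rest.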
# Biological target: Sialate O-acetylesterase (Homo sapiens) (UniProt Q9HAT2)
# Test: human SIAE inhibitors, primary screen, biochemical, fluorescence polarization, FP-Rh probe, 1536-well HTS (AID 1053197);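 also: 0% = plate median of compound wells and 100% = probe without SIAE protein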
# Conditions: SIAE FP-Rh probe binding, at 9.66 µM, hits give high values
row,SMILES,inhibition
1,CN(C)c1cccc(C(=O)NCC2(N(C)C)CCCCC2)c1,inactive: 3.18%
2,CC(C)Oc1ccc(C(=O)NCC2(N(C)C)CCCCC2)cc1,inactive: 0.29%
3,O=C(OCCN1CCCC1)C(O)(c1ccccc1)c1ccccc1,inactive: 7.68%
4,COc1ccc(Br)c(C(=O)NCC2(N3CCCCC3)CCCCC2)c1,inactive: 1.55%
5,C=C(C)C#CC(O)(C(=O)OC1CCN(C)CC1)c1ccccc1 (stereo unspecified),inactive: 1.68%
6,O=C(OC1CN2CCC1CC2)C(CO)(c1ccccc1)c1ccccc1 (stereo unspecified),inactive: 2.86%
7,O=C(NCC1(N2CCCCC2)CCCCC1)c1cccc(Cl)c1,inactive: -0.13%
8,COc1cccc(C(=O)NCC2(N3CCCCC3)CCCCC2)c1,inactive: -3.82%
9,COc1ccc(Cl)cc1C(=O)NCC1(N(C)C)CCCCC1,inactive: -5.81%
10,COc1cc(C(=O)NCC2(N(C)C)CCCCC2)c([N+](=O)[O-])cc1OC,inactive: 4.97%
11,CN(C)C1(CNC(=O)c2ccc(Br)cc2)CCCCC1,inactive: -2.68%
12,CCN1CCCC(OC(=O)C2(O)c3ccccc3C=Cc3ccccc32)C1 (stereo unspecified),inactive: -1.19%
13,Cc1cc(C(=O)NCC2(N3CCCCC3)CCCCC2)ccc1[N+](=O)[O-],inactive: -4.55%
14,O=C(NCC1(N2CCCCC2)CCCCC1)c1cccc(Br)c1,inactive: -11.8%
15,COc1ccc(C(=O)NCC2(N(C)C)CCCCC2)cc1,inactive: 2.54%
16,C=CCN1CCN(CCOC(=O)C(O)(c2ccccc2)c2ccccc2)CC1,inactive: -3.2%
17,O=C(NCC1(N2CCCCC2)CCCCC1)c1cc(F)c(F)cc1Cl,inactive: -2%
18,Cc1ccccc1C(=O)NCC1(N2CCCCC2)CCCCC1,inactive: -3.65%
19,CN(C)c1ccc(C(=O)NCC2(N(C)C)CCCCC2)cc1,inactive: 4.77%
20,CN(C)C1CCCC1OC(=O)C(O)(c1ccccc1)c1ccccc1 (stereo unspecified),inactive: 2.47%
21,Cc1ccc(C(=O)NCC2(N3CCCCC3)CCCCC2)cc1,inactive: -0.44%
22,CC(C)N1C(=O)CC2(CCN(CCOC(=O)C(O)(c3ccccc3)c3ccccc3)CC2)C1=O,active: 19.6%
23,CCN(CC)CC(C)C(C)OC(=O)C(O)(c1ccccc1)c1ccccc1 (stereo unspecified),inactive: 3.79%
24,COc1cc(SC)ccc1C(=O)NCC1(N(C)C)CCCCC1,inactive: -2.83%
25,CN1[C@@H]2CC[C@H]1CC(OC(=O)C(O)(c1ccccc1)c1ccccc1)C2 (stereo partly specified),inactive: -3.43%
26,O=C(NCC1(N2CCCCC2)CCCCC1)c1cc([N+](=O)[O-])ccc1Cl,inactive: -0.38%
